For assay [1], the target named is T1, tumor necrosis factor (TNF) (UniProt P01375).
T1 construct: tumor necrosis factor; also called trimeric TNF
Description: ELISA; TNF coated in ELISA wells; bIFX pre-incubated at the indicated temperatures in solution. Particulars: both partners purified. On the technique in general: ELISA stands for enzyme-linked immunosorbent assay.

Assay [2] concerns the target T1, tumor necrosis factor (TNF). The assay is described as follows: bead-based fluorescent sandwich/bridging immunoassay; IFX incubated first at 37-57 °C (up to 67 °C) and then covalently immobilised on fluorescent beads; TNF as bridge; native bIFX in solution; detection with PE-streptavidin. The following applies: both partners purified.

Data on 2 molecules can be found in article PMC6568389 (PLoS ONE, 2019).

B1: biotinylated Infliximab (antibody, V domains shown)
VH: EVKLEESGGGLVQPGGSMKLSCVASGFIFSNHWMNWVRQSPEKGLEWVAEIRSKSINSATHYAESVKGRFTISRDDSKSAVYLQMTDLRTEDTGVYYCSRNYYGSTYDYWGQGTTLTVSS
VL: DILLTQSPAILSVSPGERVSFSCRASQFVGSSIHWYQQRTNGSPRLLIKYASESMSGIPSRFSGSGSGTDFTLSINTVESEDIADYYCQQSHSWPFTFGSGTNLEVK
notes: as the heavy chain of m6: heavy chain of infliximab up to the constant part; as the light chain of m6: light chain of infliximab; IgG1; biotin-labelled form of m6; Used native or pre-incubated at the indicated temperatures; also called bIFX; biotin-labelled IFX; source: therapeutic monoclonal antibody; biotinylated; copies: 2 + 2
For the molecule B1, the binding result in assay [1] is reported as “binds”.

B2: Infliximab, monoclonal therapeutic IgG directed to tumor necrosis factor (TNF) (antibody, V domains shown)
VH: EVKLEESGGGLVQPGGSMKLSCVASGFIFSNHWMNWVRQSPEKGLEWVAEIRSKSINSATHYAESVKGRFTISRDDSKSAVYLQMTDLRTEDTGVYYCSRNYYGSTYDYWGQGTTLTVSS
VL: DILLTQSPAILSVSPGERVSFSCRASQFVGSSIHWYQQRTNGSPRLLIKYASESMSGIPSRFSGSGSGTDFTLSINTVESEDIADYYCQQSHSWPFTFGSGTNLEVK
notes: heavy chain of infliximab up to the constant part; light chain of infliximab; IgG1; Used native or pre-incubated at 37-67 °C; also called IFX; source: therapeutic monoclonal antibody; copies: 2 + 2
Take B2: the binding result in assay [2] is reported as “binds”.
